Results from publication PMC7856035 (Neuropharmacology, 2020).

Chains of the proteins cited; added tags and fusions are not shown. Lines headed by an entry give the natural chain unless they say otherwise; changes in a name come on top.
UniProt Q62758: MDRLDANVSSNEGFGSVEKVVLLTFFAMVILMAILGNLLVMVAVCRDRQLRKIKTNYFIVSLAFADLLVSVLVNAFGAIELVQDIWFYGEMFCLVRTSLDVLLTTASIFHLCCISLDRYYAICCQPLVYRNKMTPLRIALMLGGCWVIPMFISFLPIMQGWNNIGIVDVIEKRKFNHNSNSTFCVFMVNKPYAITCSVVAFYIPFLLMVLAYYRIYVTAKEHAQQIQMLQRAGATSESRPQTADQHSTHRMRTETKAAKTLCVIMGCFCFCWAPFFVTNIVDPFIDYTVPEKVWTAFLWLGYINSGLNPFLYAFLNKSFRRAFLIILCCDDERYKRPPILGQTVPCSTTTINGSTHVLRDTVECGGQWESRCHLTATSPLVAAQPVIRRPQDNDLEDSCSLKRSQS

Target: 5-HT4 receptor (Rattus norvegicus, UniProt Q62758)

## NCCc1c[nH]c2ccc(O)cc12 [5-HT, serotonin]
  EC50: 4.53 nM
